Laboratory results taken from ChEMBL document CHEMBL2396615, “Inhibition of soluble epoxide hydrolase by fulvestrant and sulfoxides” (Bioorg Med Chem Lett, 2013).
Activity calls are given as the source filed them. No cut-off for these calls is given here.

Sequences of proteins named here, by UniProt entry; tags and fusion partners are left off.
UniProt P34913, whole entry: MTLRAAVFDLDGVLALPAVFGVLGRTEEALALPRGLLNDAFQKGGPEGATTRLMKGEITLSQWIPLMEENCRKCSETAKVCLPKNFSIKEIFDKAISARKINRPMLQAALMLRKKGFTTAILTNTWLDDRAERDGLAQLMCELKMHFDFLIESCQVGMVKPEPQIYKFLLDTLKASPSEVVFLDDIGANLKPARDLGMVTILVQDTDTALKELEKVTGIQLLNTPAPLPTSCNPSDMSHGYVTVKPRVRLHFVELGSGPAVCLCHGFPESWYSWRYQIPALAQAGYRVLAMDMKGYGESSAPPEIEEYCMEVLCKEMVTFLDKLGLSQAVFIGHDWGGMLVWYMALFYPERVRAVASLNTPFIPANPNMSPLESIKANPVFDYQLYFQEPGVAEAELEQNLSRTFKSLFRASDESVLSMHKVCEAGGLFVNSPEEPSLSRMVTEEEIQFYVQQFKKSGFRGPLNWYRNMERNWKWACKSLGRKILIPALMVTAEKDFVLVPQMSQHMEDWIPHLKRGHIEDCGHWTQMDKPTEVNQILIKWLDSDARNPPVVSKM

What was measured:
[1] = biological target: T1, Bifunctional epoxide hydrolase 2 (Homo sapiens, UniProt P34913); assay: Inhibition of human recombinant soluble epoxide hydrolase
[2] = biological target: T1, Bifunctional epoxide hydrolase 2; assay: Reversible inhibition of human recombinant soluble epoxide hydrolase assessed as residual enzyme activity at 10 uM after 15 mins relative to control

**Q.** With C[C@]12CC[C@@H]3c4ccc(O)cc4C[C@@H](CCCCCCCCC[S+]([O-])CCCC(F)(F)C(F)(F)F)[C@H]3[C@@H]1CC[C@@H]2O (some centres not stated) [FULVESTRANT] as the molecule, how does the inhibition [1] read?
**A.** Its inhibition is “Active”.

**Q.** What about the Activity [2] of the same molecule?
**A.** Its Activity is over 80%.
